Biological target: rat CRF receptor, type 1 (rat, UniProt P35353)
Assay: SPA competition with 0.05 nM [125I-Tyr0]h/rCRF, HEK-293 membranes; 95% CI (1.3-1.9)

- IC50: 1.6 nM
Binder: SEEPPISLDLTFHLLREVLEMARAEQLAQQAHSNRKLMEII (ligand, not fully specified) [human/rat corticotropin-releasing factor]
